Results from patent publication US6541619B1 (Daewoong Pharmaceutical Co., Ltd., priority 1997, dated 2003).

Test system: CHO-K1 cells
Test: Cytotoxicity to CHO-K1 cells that do not express hEGF receptors (MTT)
Assay type: cell-based
Settings: CHO-K1, serum-free media, 2 days
Protocol: Cells were cultured on 96 well plates at 1×10^4 cells/ml for 1 day, and received serum-free media containing control and samples, and incubated for additional 2 days. Survival rate of the cells was measured with MTT, in an analogous manner as in Example 15(see: Table 4).

Substance: hEGF-angiogenin: fusion protein of EGF-angiogenin expressed from pTE4083, SEQ ID No:19
- IC50: > 100 nM
